Experimental findings from paper PMC7450492 (Molecular cancer therapeutics, 2020) are described below.

This assay relates to phosphorylation of Syk at 348 site and Y525/526 site. The experiment in a line: phosphorylation of Syk. It counts as cell-based.

Turning to `Cc1nn(-c2ccnc(Nc3ccc(-c4csc5c(=O)cc(N6CCOCC6)oc45)cc3)n2)cc1CN1CCC1` [SRX3207], the “phosphorylation of Syk at 348 site and Y525/526 site” value is “potently blocks”.
